These results are taken from publication PMC7400623, “Effect of lysine side chain length on histone lysine acetyltransferase catalysis” (Scientific Reports, 2020).

Amino acid sequences for entries named in this document (tags omitted). Residues count along the entry.
UniProt Q92830, 497-662: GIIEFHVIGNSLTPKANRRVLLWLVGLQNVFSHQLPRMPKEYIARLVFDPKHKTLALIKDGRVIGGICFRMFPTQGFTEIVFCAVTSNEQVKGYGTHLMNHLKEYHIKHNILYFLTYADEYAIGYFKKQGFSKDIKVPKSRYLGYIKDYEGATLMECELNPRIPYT
UniProt Q92831, 498-658: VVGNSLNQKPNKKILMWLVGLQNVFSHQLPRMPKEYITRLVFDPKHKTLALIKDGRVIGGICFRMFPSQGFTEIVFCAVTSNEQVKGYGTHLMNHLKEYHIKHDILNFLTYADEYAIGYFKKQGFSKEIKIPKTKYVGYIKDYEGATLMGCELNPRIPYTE

As a reminder, the Km is the substrate concentration at which the rate is half of its maximum.

What all share (type): biochemical
For experiment [1], the target named is T1, GCN5 (KAT2A) (Homo sapiens, UniProt Q92830).
T1 construct: Human GCN5 catalytic domain (residues 497–662 in pET28a-LIC vector); His-tag; host or cells: E. coli BL21(DE3)
Description: MALDI-TOF MS enzymatic assay of GCN5-catalyzed acetylation of histone peptides. Particulars: 300 µM AcCoA, pH 8.0, 37 °C; for acetylation (conversion to acetylated peptide) by GCN5: after 3 h, 2 µM GCN5, 100 µM peptide, 50 mM Hepes, 0.1 mM EDTA, 1 mM DTT, MALDI-TOF MS. As for the experimental part:
(§1) MALDI-TOF MS enzymatic assays were carried out to investigate KAT-catalyzed acetylation of synthetic histone peptides. The enzymatic activity of the recombinantly expressed human KATs was measured at different time points (2 µM KAT enzyme, 100 µM histone peptide, 300 µM AcCoA, buffer: 50 mM Hepes, 0.1 mM EDTA, 1 mM DTT, pH = 8.0, 37 °C, hereafter used as standard conditions) (Fig. 3b,c). MOF catalyzed full acetylation of H4K16 in 30 min, whereas GCN5 and PCAF catalyzed quantitative acetylation of H3K14 in 15 min and H3K9 only after 2–3 h (Fig. 4b, h and Supplementary Figs. 25–28). It is noteworthy that diacetylation of histone peptides was not detected under our assay conditions, due to preacetylation of the secondary site on H3. […] As further control, H4 and H3 peptides containing stereochemically inverted D-lysine were synthesized.
(§2) The KAT enzymatic activity towards histone peptides was measured at different time points under standard conditions (2 µM KAT enzyme, 100 µM peptide, 300 µM AcCoA) in the reaction buffer (50 mM HEPES, 0.1 mM EDTA, 1 mM DTT, pH = 8.0). The reactions were carried out in a final volume of 50 µL and shaken up in a Thermomixer C at 750 rpm, at 37 °C. The reactions were quenched by the addition of TFA 10% in MilliQ water at different time points. All reactions were aliquoted and mixed 1:2 with a solution of α-Cyano-4-hydroxycinnamic acid (CHCCA) in 1:1 MQ and ACN (0.1% TFA) and loaded onto an MTP 384 polished steel target to be analyzed by a UltrafleXtreme-II tandem mass spectrometer (Bruker, Billerica, MA, USA).

For experiment [2], the target named is T2, PCAF (KAT2B) (Homo sapiens, UniProt Q92831).
T2 construct: Human PCAF catalytic domain (residues 498–658 in pET16b vector); SNAP-tag; His-tag; made in house; host or cells: E. coli BL21(DE3)
In words: MALDI-TOF MS enzymatic assay of PCAF-catalyzed acetylation of histone peptides. The note with it: 100 µM peptide, 300 µM AcCoA, pH 8.0, 37 °C; for acetylation (conversion to acetylated peptide) by PCAF: after 3 h, 2 µM PCAF, 50 mM Hepes, 0.1 mM EDTA, 1 mM DTT, MALDI-TOF MS. On the procedure: as §1, §2

Experiment [3] has as its target T3, PCAF catalytic domain (Homo sapiens, UniProt Q92831).
T3 construct: Human PCAF catalytic domain (residues 498–658 in pET16b vector); SNAP-tag; His-tag; made in house; host or cells: E. coli BL21(DE3)
In words: MALDI-TOF MS kinetics assay, PCAF. From the text:
Kinetic analysis of bi-substrate enzymes, such as KATs, is reckoned to be challenging and dependent on many factors. Firstly, given the nature of these enzymes, the binding of one of the two substrates directly influences the binding of the other (with a direct effect on the Michaelis–Menten parameter Km). […] Therefore, to obtain data that would allow us to directly compare the catalytic properties of the selected KATs towards our selection of histone peptides bearing lysine analogs with longer side chains, two strategies to standardize our kinetic evaluation were taken: i) all the experiments were carried out with the same saturating concentrations of AcCoA and ii) only KATs catalytic domains were employed in the study. […] In contrast, kcat values decreased substantially with an increase of the side chain length, both in the K14 and K9 peptide series, and for both PCAF and GCN5 (Table 1).
Histone peptides kinetics evaluation was carried out with a MALDI-TOF MS assay under steady-state conditions[57],[58]. Histone peptides (1,050–0 µM) were incubated with AcCoA (100 µM) and the reactions were started by the addition of the enzyme (MOF 570 nM, PCAF and GCN5 50 nM) in a final volume of 20 µL in kinetic buffer (50 mM HEPES, 0.1 mM EDTA, 0.01% TRITON-X, pH = 7.4). For histone peptides bearing unnatural lysine analogs, higher concentration of enzymes was used (MOF, PCAF and GCN5 2 µM). Steady state conditions were guaranteed by employing saturating concentrations of AcCoA (> 5 × Km value). AcCoA stock solutions in milli-Q water were calibrated with a NanoDrop 2000 spectrophotometer (Thermo Scientific, Waltham, MA, USA), employing the characteristic molar extinction coefficient ε260nm = 16,400 M^−1 cm^−1. Reactions were incubated at 37 °C, shaken at 750 rpm and quenched with TFA 10% in milli-Q water at different time points, within linear production of acetylated peptides extrapolated from time-course plots. All reactions were aliquoted and mixed 1:2 with a solution of α-cyano-4-hydroxycinnamic acid (CHCCA) in 1:1 MQ and ACN (0.1% TFA) and loaded onto MTP 384 polished steel target to be analyzed by UltrafleXtreme-II tandem mass spectrometer (Bruker). The amount of acetylated peptide was calculated by integration of the product peak area and divided it by the amount of unacetylated peptide, taking in account all the ionic species, at any concentration points using the FlexAnalysis software. Kinetic values were extrapolated by fitting V0 values (µM of produced peptide per minutes) and histone peptide concentrations to the Michaelis–Menten equation using the GraphPad Prism 5 software. Kinetic experiments were carried out in duplicates and final values are reported as value ± SD.

With “ARTKQTAR K9STGGK Ac A [H3K9, 15-mer H3 peptide, residues 1–15, synthetically acetylated K14, reference compound]”, the “time to quantitative acetylation by GCN5” value in experiment [1] (standard conditions: 2 µM GCN5, 100 µM peptide) is 2 to 3 h. In addition, the “time to quantitative acetylation by PCAF” value in experiment [2] (standard conditions: 2 µM PCAF) was in the range of 2 to 3 h.

As for “ARTKQTAR h2K9STGGK Ac A [H3h2K9, 15-mer histone H3 peptide (K14ac) with h2K at position 9]”, the “kcat^app” value in experiment [3] (PCAF catalytic domain 50 nM (2 µM for unnatural analogs), peptide 1,050–0 µM, AcCoA 100 µM (saturating), 50 mM HEPES, 0.1 mM EDTA, 0.01% TRITON-X, pH 7.4, 37 °C, MALDI-TOF MS, duplicates, value ± SD, SD) was 0.0012 ± 0.00017 s⁻¹. The Km in experiment [3] (PCAF catalytic domain 50 nM (2 µM for unnatural analogs), peptide 1,050–0 µM, AcCoA 100 µM, pH 7.4, 37 °C, MALDI-TOF MS, duplicates, value ± SD, SD, read-out: Km^app) turned out to be 179 ± 37 µM. Also, the “decrease (drop) of kcat/Km for PCAF compared to the natural lysine peptide” value in experiment [3] (PCAF, K14 series vs H3K14, K9 series vs H3K9) was 30 fold. For the same sequence, in experiment [3] (PCAF, same kinetics conditions), the “kcat^app/Km^app” value was 6.7 M⁻¹ s⁻¹. Besides, in experiment [1], the “acetylation (conversion to acetylated peptide) by GCN5” value is given as 14%. In addition, the “acetylation (conversion to acetylated peptide) by PCAF” value in experiment [2] amounted to 33%.

Regarding “ARTKQTAR hK 9STGGK Ac A [H3hK9, 15-mer histone H3 peptide (K14ac) with hLys at position 9]”, the “acetylation (conversion to acetylated peptide) by GCN5” value in experiment [1] turned out to be 30%. The “acetylation (conversion to acetylated peptide) by PCAF” value in experiment [2] was 50%.
